The source of these data is article PMC7956155, “Design and Evaluation of Peptide Dual-Agonists of GLP-1 and NPY2 Receptors for Glucoregulation and Weight Loss with Mitigated Nausea and Emesis” (Journal of Medicinal Chemistry, 2021).

A short description of this data set: Pooled rat liver microsomal stability assay. It is filed as in vitro ADME. As to conditions: pooled male Sprague–Dawley rat liver microsomes 1 mg/mL, 30 μM peptide, 1 mM NADPH, 3 mM MgCl2/25 mM KH2PO4 pH 7.4, 37 °C, HPLC UV 206 nm, n = 3 independent assays. Background: Microsomes from liver hold many membrane-bound enzymes, among them those of drug oxidation.

For `CC[C@H](C)[C@H](NC(=O)[C@H](Cc1ccccc1)NC(=O)[C@H](CCC(=O)O)NC(=O)[C@H](CCCNC(=N)N)NC(=O)[C@@H](NC(=O)[C@H](C)NC(=O)[C@H](CCC(=O)O)NC(=O)[C@H](CCC(=O)O)NC(=O)[C@H](CCC(=O)O)NC(=O)[C@H](CC(C)C)NC(=O)[C@H](Cc1ccc(O)cc1)NC(=O)[C@H](CCCCN=[N+]=[N-])NC(=O)[C@H](CO)NC(=O)[C@H](CC(C)C)NC(=O)[C@H](CC(=O)O)NC(=O)[C@H](CO)NC(=O)[C@@H](NC(=O)[C@H](Cc1ccccc1)NC(=O)[C@@H](NC(=O)CNC(=O)[C@H](CCC(N)=O)NC(=O)[C@@H](CO)NC(=O)[C@@H](N)Cc1c[nH]cn1)[C@@H](C)O)[C@@H](C)O)C(C)C)C(=O)N[C@@H](C)C(=O)N[C@@H](Cc1c[nH]c2ccccc12)C(=O)N[C@@H](CC(C)C)C(=O)N[C@@H](CCCCN)C(=O)N[C@@H](CC(N)=O)C(=O)NCC(=O)NCC(=O)N1CCC[C@H]1C(=O)N[C@@H](CO)C(=O)N[C@@H](CCCNC(=N)N)C(=O)N[C@@H](Cc1c[nH]cn1)C(=O)N[C@@H](Cc1ccc(O)cc1)C(=O)N[C@@H](CC(C)C)C(=O)N[C@@H](CC(N)=O)C(=O)N[C@@H](CC(C)C)C(=O)N[C@H](C(=O)N[C@H](C(=O)N[C@@H](CCCNC(=N)N)C(=O)N[C@@H](CCC(N)=O)C(=O)N[C@@H](CCCNC(=N)N)C(=O)N[C@@H](Cc1ccc(O)cc1)C(N)=O)[C@@H](C)O)C(C)C` [GEP44], the half-life at 30 μM (over 120 min, read-out: t1/2 in rat liver microsomes) came to 2.27 h. The “slope (microsomal elimination fit)” value (sampled every 20 min over 120 min) is listed as “–0.005087”.
